pEC50: −log10 of the molar value.
Experiments:
human PPAR γ = human PPAR γ (Homo sapiens, UniProt P37231); experiment: In vitro PPAR gamma transactivation assay (GAL4-DBD-PPAR-LBD luciferase reporter in HEK293 cells); assay type: cell-based
human PPAR α = human PPAR α (Homo sapiens, UniProt Q07869); experiment: In vitro PPAR alpha transactivation assay (GAL4-DBD-PPAR-LBD luciferase reporter in HEK293 cells); assay type: cell-based

Protein sequences, listed by entry. Tags and fused reporters are not part of them. Residues count along the entry.
UniProt P37231, 193-505 limits assumed: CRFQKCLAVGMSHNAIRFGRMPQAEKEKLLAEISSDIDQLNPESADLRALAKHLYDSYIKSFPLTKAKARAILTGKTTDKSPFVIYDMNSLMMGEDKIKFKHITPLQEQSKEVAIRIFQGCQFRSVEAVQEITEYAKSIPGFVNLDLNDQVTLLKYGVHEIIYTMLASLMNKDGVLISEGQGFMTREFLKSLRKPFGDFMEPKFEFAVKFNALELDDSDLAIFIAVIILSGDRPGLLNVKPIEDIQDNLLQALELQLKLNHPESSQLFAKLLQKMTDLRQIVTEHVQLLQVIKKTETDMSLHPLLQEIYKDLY
UniProt Q07869, 167-468 limits assumed: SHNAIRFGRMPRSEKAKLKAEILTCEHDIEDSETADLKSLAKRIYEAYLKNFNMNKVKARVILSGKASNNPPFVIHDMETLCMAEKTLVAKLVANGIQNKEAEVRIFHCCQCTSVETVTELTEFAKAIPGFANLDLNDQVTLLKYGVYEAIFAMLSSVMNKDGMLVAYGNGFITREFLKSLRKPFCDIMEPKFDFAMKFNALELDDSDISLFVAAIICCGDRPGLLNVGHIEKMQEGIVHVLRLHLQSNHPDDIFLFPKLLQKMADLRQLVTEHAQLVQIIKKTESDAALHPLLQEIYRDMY

CCO[C@@H](Cc1ccc(OC/C=C(\C)C#Cc2ccccc2)cc1)C(=O)O
In vitro activation PPAR γ % max (human PPAR γ; fold activation relative to maximum activation obtained with rosiglitazone (approx. […] fold corresponded to 100%)): 108%
pEC50 (human PPAR γ; read-out: In vitro activation PPAR γ EC50, HEK293 cells, 24 h with compound, five concentrations 0.01 to 30 μM, means of at least three experiments): 6.15
In vitro activation PPAR α % max (human PPAR α; fold activation relative to maximum activation obtained with Wy14643 (approx. 20 fold corresponded to 100%)): 217%
pEC50 (human PPAR α; read-out: In vitro activation PPAR α EC50, HEK293 cells, 24 h with compound, five concentrations 0.01 to 30 μM, means of at least three experiments): 6.70

— patent publication US7202213B2 (Novo Nordisk A/S, priority 2000, dated 2007)
